This passage reports inhibition results from PubChem BioAssay AID504462 (Sanford-Burnham Center for Chemical Genomics, 2011).

Chains of the proteins cited; added tags and fusions are not shown.
UniProt Q9Y4P1, whole entry: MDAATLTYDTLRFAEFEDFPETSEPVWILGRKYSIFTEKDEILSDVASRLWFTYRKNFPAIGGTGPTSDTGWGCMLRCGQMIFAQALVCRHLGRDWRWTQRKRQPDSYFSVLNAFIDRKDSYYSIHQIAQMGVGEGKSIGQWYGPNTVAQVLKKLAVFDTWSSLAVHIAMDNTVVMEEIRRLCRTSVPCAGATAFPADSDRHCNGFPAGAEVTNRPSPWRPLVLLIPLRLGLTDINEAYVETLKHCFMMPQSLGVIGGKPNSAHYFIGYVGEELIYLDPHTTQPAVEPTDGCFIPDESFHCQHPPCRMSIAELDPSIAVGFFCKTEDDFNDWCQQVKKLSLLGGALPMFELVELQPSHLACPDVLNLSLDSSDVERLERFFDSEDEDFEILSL

The entries are a selection whose mix differs from that of the whole data set. Activity calls are given as the source filed them. Cut-off read from the data, not from the text of the source: active = inhibition above about 40%; inactive = the rest.

The experiment addresses Cysteine protease ATG4B (Homo sapiens) (UniProt Q9Y4P1). As to the kind of experiment: ATG4B protease inhibitors, primary screen, biochemical, fluorescence, uHTS (AID 504462). To be noted: ATG4B cleavage of LC3-PLA2, NBD-HPC fluorescence, 1 h; at 8.33 µM; stronger effect = higher value.
Turning to `O=[N+]([O-])c1cc([N+](=O)[O-])c(Nc2nnnn2CCO)c([N+](=O)[O-])c1`, the inhibition – broadly, the relative decrease from the control value, in per cent – is inactive: -0.99%.
Then `O=[N+]([O-])c1cc([N+](=O)[O-])c(-c2cnn(-c3ccccc3)c2)c([N+](=O)[O-])c1`, with inactive: -10.4%; and `Cc1nc2ccc3ccccc3c2s1.O=[N+]([O-])c1cc([N+](=O)[O-])c(O)c([N+](=O)[O-])c1`, with inactive: -13.6%.
Turning to `O=[N+]([O-])c1cc([N+](=O)[O-])c(-n2nnc3ccccc32)c([N+](=O)[O-])c1`, the inhibition was inactive: -7.91%.
Then `Cc1ccc(C)c(NP(C)(=O)Oc2ccccc2)c1` (stereo unspecified), with inactive: 2.66%; and `Cc1cc(C)cc(OP(C)(=O)Nc2ccccn2)c1` (stereo unspecified), with inactive: -7.69%.
For the compound `CP(=O)(Nc1cccc(Br)c1)Oc1ccccc1` (stereo unspecified), the inhibition was inactive: 7.32%.
On to `COc1ccccc1OP(C)(=O)Nc1cccc(Br)c1` (stereo unspecified), for which the inhibition was inactive: 3.8%.
To `CCOC(=O)c1ccc(NP(C)(=O)Oc2cc(C)cc(C)c2)cc1` (stereo unspecified) belongs inactive: -14.4%; to `Cc1cc(C)cc(OP(C)(=O)Nc2ccc(C)cc2C)c1` (stereo unspecified), inactive: -0.96%; to `CC1=NCCc2c1[nH]c1ccccc21.O=[N+]([O-])c1cc([N+](=O)[O-])c(O)c([N+](=O)[O-])c1`, inactive: -6.69%.
To `O=C(O)c1cccc(Nc2c([N+](=O)[O-])cc([N+](=O)[O-])cc2[N+](=O)[O-])c1` belongs inactive: 3.37%; to `Cc1ccc(NP(C)(=O)Oc2ccccc2)c(C)c1` (stereo unspecified), inactive: -1.74%; to `COc1ccccc1OP(C)(=O)Nc1ccc(C)cc1` (stereo unspecified), inactive: -0.52%.
Take `CCOC(=O)c1ccc(NP(C)(=O)Oc2ccccc2)cc1` (stereo unspecified): the inhibition was inactive: -4.29%.
Consider `Cc1cc(C)cc(OP(C)(N)=O)c1` (stereo unspecified), for which the inhibition was inactive: -3.08%.
With `COc1ccc(OP(C)(=O)Nc2cccc(F)c2)cc1` (stereo unspecified), the inhibition is inactive: 3.7%.
With `COc1ccccc1OP(C)(=O)Nc1cc(Cl)ccc1C` (stereo unspecified), the inhibition was inactive: 9.05%.
Turning to `O=[N+]([O-])c1cc([N+](=O)[O-])c(Nc2cccnc2)c([N+](=O)[O-])c1`, the inhibition is inactive: 4.19%.
Take `O=[N+]([O-])c1ccc2c(c1)C=Nc1ccccc1O2`: the inhibition is inactive: -10.4%.
With `Cc1cccc(C)c1OP(C)(N)=O` (stereo unspecified), the inhibition is inactive: 3.41%.
To `CC(C)(C)c1ccc(OP(C)(=O)Nc2ccc(SC(F)(F)F)cc2)cc1` (stereo unspecified) belongs inactive: 5.2%; to `CCN(CC)CCCOC(=O)C(O)(c1ccccc1)c1ccccc1`, inactive: -0.89%; to `O=[N+]([O-])c1cc([N+](=O)[O-])c(O)c([N+](=O)[O-])c1.c1ccc(Oc2ccncc2)cc1`, inactive: -5.97%.
Turning to `CCOC(=O)c1ccc(NP(C)(=O)Oc2ccc(OC)cc2)cc1` (stereo unspecified), the inhibition was inactive: -6.24%.
As to `CCOP(C)(=S)SCC(=O)NC(C)C(=O)O` (stereo unspecified), the inhibition was inactive: 9.13%.
Turning to `CP(=O)(Nc1ccccn1)Oc1ccc(Cl)cc1` (stereo unspecified), the inhibition is inactive: -3.53%.
With `CP(=O)(Oc1ccccc1)OC(c1ccccc1)C(F)(F)F` (stereo unspecified), the inhibition was inactive: -5.86%.
With `CP(=O)(Nc1ccc(SC(F)(F)F)cc1)Oc1ccc(Cl)cc1` (stereo unspecified), the inhibition is inactive: 3.44%.
For the compound `Cc1cccc(C)c1OP(C)(=O)Nc1ccc(SC(F)(F)F)cc1` (stereo unspecified), the inhibition was inactive: -5.75%.
On to `Cc1cc(C)cc(OP(C)(=O)Nc2ccc(SC(F)(F)F)cc2)c1` (stereo unspecified), for which the inhibition was inactive: 10.7%.
Regarding `CP(=O)(NC(=O)Nc1ccccc1)Oc1ccccc1` (stereo unspecified), the inhibition is inactive: 0.87%.
For `CCc1ccc(OP(C)(=O)N2CCN(c3ccc([N+](=O)[O-])cc3)CC2)cc1` (stereo unspecified), the inhibition was inactive: -24.1%.
On to `CP(=S)(Nn1cnnc1)Oc1ccccc1` (stereo unspecified), for which the inhibition was inactive: -3.26%.
To `CP(=O)(Nc1ccccc1Br)Oc1ccccc1` (stereo unspecified) belongs inactive: 4.69%; to `COc1ccccc1OP(C)(=O)Nc1ccccc1` (stereo unspecified), inactive: -6.15%.
